For 2 compounds, ratio readout change results are on record in PubChem BioAssay AID623908 (Johns Hopkins Ion Channel Center, 2012).

This is a selection; strong and weak results do not stand in their true shares. Calls of active or inactive are those of the source.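 How the source made its calls: active means duplicate-averaged ratio beyond 3 SD from buffer wells, up or down, though filed actives are nearly all decreases; inactive means the rest.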

The nature of the assay: dye ratio change in CHT-lacking host cells – cell-based, parental HEK293, membrane potential dye, counter-screen for CHT activator project (AID 623908). The settings on record: parental HEK293, membrane potential dye fluorescence (FDSS); at 10 µM; measured after EC20 choline addition.
With `CCC1=CC2Cc3nc4ccc(Cl)cc4c(N)c3C(C1)C2` (configuration not stated), the ratio readout change is active: -49.2.
Turning to `CC1CCC(C(C)C)C(OP(=O)(Nc2ccccn2)c2ccccc2)C1` (configuration not stated), the ratio readout change was inactive: 0.
